Assay results from article PMC9199891 (Clinical and Translational Science, 2022).

Test: Single-dose pharmacokinetics of omeprazole
Format: in vivo, healthy Chinese volunteers
Conditions: 20 mg single oral dose, mean ± SD

t1/2 (CYP2C19 *1/*1 (n = 263)): 60.6 ± 45.6 min | t1/2 (CYP2C19 *2/*17 (n = 2)): 54 ± 5.4 min | t1/2 (CYP2C19 *3/*17 (n = 3)): 51.6 ± 7.8 min
SMILES: COc1ccc2[nH]c([S+]([O-])Cc3ncc(C)c(OC)c3C)nc2c1 (stereo not drawn) [omeprazole]
